Values of other authors as cited in patent US20170143824A1 (Teva Pharmaceutical Industries, Ltd., priority 2013, published 2017).

Experiments:
patients with MS = conditions: at one year
patients with RRMS = conditions: registration trials, compared with placebo

Row | Molecule | number of new and newly enlarged T2 lesions on MRI scans (patients with MS) | reduction of relapse rate (patients with RRMS)
1 | Avonex: IFN beta-1a, FDA-approved drug for RRMS (protein, UniProt P01574 22-187, looked up) Interferon beta: MSYNLLGFLQRSSNFQCQKLLWQLNGRLEYCLKDRMNFDIPEEIKQLQQFQKEDAALTIYEMLQNIFAIFRQDSSSTGWNETIVENLLANVYHQINHLKTVLEEKLEKEDFTRGKLMSSLHLKRYYGRILHYLKAKEYSHCAWTIVRVEILRNFYFINRLTGYLRN | 2.6 | about one third
2 | Rebif: IFN beta-1a, FDA-approved drug for RRMS (protein, UniProt P01574 22-187, looked up, interferon beta-1a, IFN beta-1a, FDA-approved drug for RRMS) Interferon beta: MSYNLLGFLQRSSNFQCQKLLWQLNGRLEYCLKDRMNFDIPEEIKQLQQFQKEDAALTIYEMLQNIFAIFRQDSSSTGWNETIVENLLANVYHQINHLKTVLEEKLEKEDFTRGKLMSSLHLKRYYGRILHYLKAKEYSHCAWTIVRVEILRNFYFINRLTGYLRN |  | about one third
